ChEMBL document CHEMBL4196220, “Synthesis and Discovery of Arylpiperidinylquinazolines: New Inhibitors of the Vesicular Monoamine Transporter” (J Med Chem, 2018)
The source made the active and inactive calls. The rule behind the calls is not given here.

Molecular target: Synaptic vesicular amine transporter (Homo sapiens, UniProt Q05940)
Experiment: Binding affinity to human VMAT2 expressed in HEK293 cell membranes in presence of 2 mM Mg-ATP by scintillation counting method
How it was run: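 Membranes from confluent HEK-293 cells stably expressing human VMAT2, prepared by osmotic shock and restored with Tris/K tartrate/MgSO4. About 50−75 μg protein per assay with [3H](+)-5b at 50−100 nM final. Incubated 60 min at 4 °C in the dark. Nonspecific binding taken with 10 μM O-7443. Filtration, then beta counting.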

SMILES: COc1cc2c(cc1OC)C1CC(O)C(CC(C)C)CN1CC2 (stereo unspecified)
- Activity: Active
